Screening results (PubChem BioAssay)
GIV-Gai inh: GIV-Galpha-i interaction inhibition. AID 1224905. actives 0.42% (n = 210,000). percent of control (FP), % (test concentration not listed). Galpha-i3/FITC-GIV peptide fluorescence polarization, 90 min; stronger effect = lower value; scaled: aluminum fluoride 0%, vehicle 100%;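 active = replicate mean at 85% of control or lower, very high polarization wells dropped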;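 also: wells of about 15 µL received 100 nL stock; the first replicate is given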
HCMV UL50-53 inh: disrupts HCMV UL50-UL53 complex binding; actives 0.15% (n = 190,000); AID 1918969; HTRF UL50-UL53 interaction, normalized percent inhibition; inhibition, % (test concentration not listed); in the data active = inhibition above about 27%, passing the limit was not always enough
GIV-Gai FP conf: GIV-Galpha-i3 inhibition, FP confirmation | shares compounds with GIV-Gai inh | fluorescence polarization, mP at 100 µM | FITC-GIV peptide binding to Galphai3, fluorescence polarization; active compounds read low | actives 38% (n = 580);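 active = inhibition score of 15 or more, meaning 100 minus mean polarization as percent of control over three replicates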;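 note: lower mP means peptide displaced from Galphai3 so more inhibition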
GIV-Gai AS conf: GIV-Galpha-i3 inhibition, AlphaScreen confirmation | shares compounds with GIV-Gai inh | AlphaScreen Galphai3-GIV binding, purified proteins, 90 min; active compounds read low | AlphaScreen counts at 100 µM | actives 39% (n = 580) | AID 1259351;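 active = inhibition score at or above a set limit, where the score is 100 minus the three-replicate mean percent of control signal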
Numbers without * were called inactive; . = not tested or not shown. An excerpt weighted towards active compounds, which were near 0.43% of everything screened.

| SMILES | GIV-Gai inh | HCMV UL50-53 inh | GIV-Gai FP conf | GIV-Gai AS conf |
| --- | --- | --- | --- | --- |
| O=C(NCc1ccc(Br)cc1)c1cccc(Oc2cc(-c3ccccc3)ncn2)c1 | 101 | . | . | . |
| O=C(O)CSCC(=O)N1CCN(c2cc(C(F)(F)F)nc3ccccc23)CC1 | 91 | -48 | 72 | 48255 |
| O=C(C1CCCCC1)N1CCN(c2cc(C(F)(F)F)nc3ccccc23)CC1 | 112 | 11 | . | . |
| S=c1[nH]nc(C2COc3ccccc3O2)o1 (stereo not drawn) | 83* | -1 | 68 | 3039* |
| S=c1nc(C2COc3ccccc3O2)[nH][nH]1 (stereo not drawn) | . | -2 | . | . |
| CCOc1ccc(-n2c(=S)sc3c2nc(SCC(=O)NC2CCCCC2)n2c4ccccc4nc32)cc1 | 99 | . | . | . |
| COc1ccc(-c2c(C#N)c(N)n3c(nc4ccccc43)c2C#N)cc1O | 105 | . | . | . |
| COc1ccc(-c2c(C#N)c(N)n3c(nc4ccccc43)c2C#N)cc1OC | 83* | -8 | 63 | 61581 |
| CCCNC(=O)Nc1cccc(-c2noc(-c3ccc(F)cc3)n2)c1 | 109 | 12 | . | . |
| O=Cc1c(O)c2ccccc2c2ccccc12 | 44* | -27 | 38* | 22285 |
| O=c1oc2ccccc2c(O)c1C=Nc1ccccc1 | 107 | -14 | . | . |
| CC(=NCc1cccnc1)c1c(C)[nH]n(-c2nc3ccccc3s2)c1=O | 97 | -24 | . | . |
| Cc1ccc(Nc2nc(N)nc(CN3CCN(C(=O)C4COc5ccccc5O4)CC3)n2)cc1 (stereo not drawn) | . | -24 | . | . |
| Clc1ccc2c(c1)NNc1nncn1-2 | 101 | -294 | . | . |
| O=C(O)CSc1nnc2n1-c1ccc(Cl)cc1NN2 | 47* | -265 | 39* | 6321* |
| Cc1cccc(NC(=O)NCc2cc(=O)n3nc(-c4ccccc4)sc3n2)c1C | 104 | -14 | . | . |
| O=C(NC1CCCCC1)c1cccc(-c2cc(N3CCCC3)ncn2)c1 | 102 | . | . | . |
| COc1ccc(OC)c(/C=C2/SC(=Nc3ccccc3)N(N(C)C)C2=O)c1 | 102 | . | . | . |
| C=CCNC(=O)c1cc2c(C)nn(-c3ccc(F)cc3)c2s1 | . | -6 | . | . |
| Nc1ccc(N2CCOCC2)c2nonc12 | 63* | 5 | 46* | 2710* |
| O=C(Nc1ccc(N2CCOCC2)c2nonc12)c1ccco1 | 113 | 0 | . | . |
| O=c1sc2ccccc2n1Cc1nnc(-c2ccccc2)o1 | 92 | 19 | 74 | 33349 |
| O=c1sc2ccccc2n1Cc1ccccc1 | . | 4 | . | . |
| CC1=CC(=C2C(=O)c3ccccc3C2=O)C=C(C)N1CCO | 91 | -52 | . | . |
| CC1=CC(=C2C(=O)c3ccccc3C2=O)C=C(C)N1C(C)C | 73* | -113 | 71 | 40071 |
| CN1C(=O)N(C)C(=O)C(CC(=O)N2CCCCC2)(CC(=O)N2CCCCC2)C1=O | 104 | -29 | . | . |
| COc1ccc2c(c1)N(C1CCCCC1)/C(=C1/SC(=S)N(C)C1=O)S2 | 109 | . | . | . |
| COc1ccc2c(c1)N(C)/C(=C1/SC(=S)N(C)C1=O)S2 | 94 | -3 | 72 | 33947 |
| COc1ccc(C(=O)CSc2nnc(-c3ccco3)c(-c3ccco3)n2)cc1 | 111 | . | . | . |
| O=C(CSc1nnc(-c2ccco2)c(-c2ccco2)n1)Nc1ccc(C(=O)O)cc1 | 77* | -64 | 60* | 2995* |

Continued, overlapping the part above by 4 compounds.
| SMILES | GIV-Gai inh | HCMV UL50-53 inh | GIV-Gai FP conf | GIV-Gai AS conf |
| --- | --- | --- | --- | --- |
| COc1ccc2c(c1)N(C1CCCCC1)/C(=C1/SC(=S)N(C)C1=O)S2 | 109 | . | . | . |
| COc1ccc2c(c1)N(C)/C(=C1/SC(=S)N(C)C1=O)S2 | 94 | -3 | 72 | 33947 |
| COc1ccc(C(=O)CSc2nnc(-c3ccco3)c(-c3ccco3)n2)cc1 | 111 | . | . | . |
| O=C(CSc1nnc(-c2ccco2)c(-c2ccco2)n1)Nc1ccc(C(=O)O)cc1 | 77* | -64 | 60* | 2995* |
| C=CCNC(=O)C1CC(=O)N(c2ccc(F)c(Cl)c2)C1 (stereo not drawn) | 99 | 2 | . | . |
| COc1cc(C2C(C(=O)Nc3nc4ccccc4s3)=C(C)NC3=C2C(=O)CC(C)(C)C3)ccc1O (stereo not drawn) | 101 | -11 | . | . |
| Cc1c(/C=N/N=c2\sc3ccccc3n2C)n(C)n(-c2ccccc2)c1=O | . | -24 | . | . |
| CN(C)c1ccc(/C=C/C=N/N=c2/sc3ccccc3n2C)cc1 | 98 | -11 | 86 | 34665 |
| COc1ccc(SCC(=O)O)cc1 | . | -16 | . | . |
| Cc1ccc(C)n1-c1ccc(SCC(=O)O)cc1 | 6.4* | 56* | 17* | 2022* |
| CCCN(CCC)C(=O)c1ccc(Nc2ccnc(-c3cccc(C)c3)n2)cc1 | 99 | -8 | . | . |
| O=C(NCc1ccco1)/C(=C\c1ccco1)NC(=O)c1ccccc1 | 115 | . | . | . |
| COc1ccc(/C=C2/SC(=S)N(CCC(=O)Nc3c(C)n(C)n(-c4ccccc4)c3=O)C2=O)cc1 | 57* | -15 | 75 | 43904 |
| COc1ccc(/C=C2\SC(=O)N(CCC(=O)Nc3c(C)n(C)n(-c4ccccc4)c3=O)C2=O)cc1 | 106 | -7 | . | . |
| CC1CCCCC12NC(=O)N(CCC#N)C2=O (stereo not drawn) | . | -19 | . | . |
| O=c1cc(CN(CCO)CCO)nc2nc(-c3ccccc3)[nH]n12 | 94 | -24 | . | . |
| COn1c(C)c(C)c2c3no[n+]([O-])c3ccc21 | 72* | -8 | 60 | 22452* |
| Cc1c(C)[n+]([O-])c2ccc3c(non3O)c12 | 94 | -98 | . | . |
| O=C(CCC(=O)N1CCc2ccccc2C1)Nc1nc(-c2cc3cc(Br)ccc3oc2=O)cs1 | 105 | -2 | . | . |
| O=C(c1ccccc1)c1ccccn1 | 77* | -20 | 72 | 34253 |
| NC(=O)c1ccccn1 | . | -2 | . | . |
| Cc1nn(-c2ccccc2)c2c1-c1sc(C(=O)NCc3cccs3)cc1CC2 | 113 | -6 | . | . |
| Cc1ccc(NC(=S)Nc2cccc(C(F)(F)F)c2)cc1NS(C)(=O)=O | 69* | 74* | 50* | 38510 |
| COC(CNC(=S)Nc1cccc(C(F)(F)F)c1)OC | 104 | -2 | . | . |
| C[n+]1c(CF)sc2ccccc21 | . | -23 | . | . |
| O=C(O)c1ccc(CS(=O)(=O)c2ccccc2)o1 | 77* | . | 55 | 2163* |
| NNC(=O)c1ccc(CS(=O)(=O)c2ccccc2)o1 | . | 5 | . | . |
| CCCn1cc(S(=O)(=O)c2ccc(CC)cc2)c(=O)c2cc(F)c(N3CCN(C)CC3)cc21 | 110 | . | . | . |
| CCCn1cc(S(=O)(=O)c2ccc(OC)cc2)c(=O)c2cc(F)c(N3CCN(C)CC3)cc21 | 68* | -12 | 71 | 35545 |
| Cc1ccc(C(=O)Nc2cc(-c3ccccc3)nn2-c2ccccc2)cc1 | 108 | . | . | . |
| COC(=O)c1cn(CC(=O)OCC(=O)Nc2ccc(N3CCOCC3)cc2)c2ccccc12 | . | -7 | . | . |
| CCN1/C(=C\C=C\c2n(CC)c3cc(Cl)c(Cl)cc3[n+]2CCCS(=O)(=O)[O-])N(CCCS(=O)(=O)O)c2cc(Cl)c(Cl)cc21 | 79* | . | 74 | 10331* |
| CC1CCC(C(C)C)C(OC(=O)c2cccc(N3C(=O)C4C5c6ccccc6C(c6ccccc65)C4C3=O)c2)C1 (stereo not drawn) | 105 | . | . | . |
| Cc1cc(C)nc(NC(c2cccc(F)c2)c2cc(C)sc2NC(=O)c2ccccc2)n1 (stereo not drawn) | 69* | 0 | 65 | 35362 |
| Cc1cc(C)nc(NC(c2ccccc2)c2cc(C)sc2NC(=O)c2ccccc2)n1 (stereo not drawn) | 109 | -8 | . | . |
| COc1cccc(CNC(=O)c2cccc(S(=O)(=O)N3CC(C)OC(C)C3)c2)c1 (stereo not drawn) | . | 4 | . | . |
| COC(=O)c1[nH]c(C(=O)OC)c(O)c1O | 59* | -12 | 65 | 50522 |
| COC(=O)c1[nH]c(C)c(C(=O)OC)c1C | . | -6 | . | . |
| O=C(CCn1cnc2ccccc2c1=O)N1CCc2ccccc21 | 104 | -10 | . | . |
| c1ccc(Oc2nnc(Oc3ccccc3)c3ccccc23)cc1 | 99 | -19 | . | . |

2 entries drawn at random from the list so far:
| SMILES | GIV-Gai inh | HCMV UL50-53 inh | GIV-Gai FP conf | GIV-Gai AS conf |
| --- | --- | --- | --- | --- |
| CCOc1ccc(-n2c(=S)sc3c2nc(SCC(=O)NC2CCCCC2)n2c4ccccc4nc32)cc1 | 99 | . | . | . |
| NC(=O)c1ccccn1 | . | -2 | . | . |
